Among the data in patent publication US20130136736A1 (Ablynx, published 2013) are Kd values, retold here.

Changes are numbered by the printed parent chain.

B1: 12B6H4 (VHH)
VHH: EVQLVESGGGLVQPGGSLRLSCAASGRTFSYNPMGWFRQAPGKGRDVVAAISRTGGSTYYARSVEGRFTISRDNAKRSVYLQMNSLRAEDTAVYYCAAAGVRAEDGRVRTLPSEYNFWGQGTQVTVSS
notes: Humanised 12B6, monovalent
B2: 12B6H1 (VHH)
VHH: B1 VHH with S78M
notes: Humanised 12B6, monovalent
B3: 12B6H2 (VHH)
VHH: B1 VHH with D46E, S78M
notes: Humanised 12B6, monovalent
B4: 12B6H3 (VHH)
VHH: B1 VHH with R77N, S78M
notes: Humanised 12B6, monovalent
B5: 12B6 (VHH)
VHH: B1 VHH with E1Q, P14A, S17A, G44E, S78M, S85A, R87K, A88P
notes: Monovalent llama Nanobody; TALON-purified and detected with anti-myc, so tagged (myc/His)
B6: 12A2 (VHH)
VHH: QVKLEESGGGLVQAGGALRLSCAASGRTFSYNPMGWFRQAPGKERDLVAAISRTGGSTYYPDSVEGRFTISRDNAKRMVYLQMNNLKPEDTAVYYCAAAGVRAEDGRVRTLPSEYTFWGQGTQVTVSS
notes: 12B6 homologue, monovalent Nanobody
B7: 12A2H3 (VHH)
VHH: B1 VHH with D46E, V47L, A61P, R62D, R77N, S78M, N116T
notes: Humanised 12A2, monovalent
B8: 12A2H13 (VHH)
VHH: B1 VHH with R27F, D46E, V47L, A61P, R62D, R77N, N116T, Q123L
notes: Humanised 12A2, monovalent
B9: 12A2H11 (VHH)
VHH: B1 VHH with R27F, D46E, V47L, A61P, R62D, S78M, N116T
notes: Humanised 12A2, monovalent
B10: 12A5H1 (VHH)
VHH: EVQLVESGGGLVQPGGSLRLSCAASGRIFSIGAMGMYRQAPGKGRELVATITSGGSTNYADPVKGRFTISRDGPKNTVYLQMNSLRAEDTAVYYCYANLKQGSYGYRFNDYWGQGTQVTVSS
notes: Humanised 12A5, monovalent; TALON-purified, so His-tagged
B11: 12A5H2 (VHH)
VHH: B10 VHH with P74A
notes: as for B10

One assay concerns the target T1, human von Willebrand Factor (vWF) (human, UniProt P04275 764-2813).
T1 construct: Multimeric plasma protein; The species of the vWF on the BIACORE chip and ELISA plates is not restated there; also called vWF (Red Cross); human vWF
As to the kind of experiment: SPR (BIACORE) on vWF. (In general: Surface plasmon resonance follows binding to a sensor surface in real time, without labels.)
Take B1: the affinity, expressed as Kd, was 7.3 nM.
For the molecule B2, the Kd (in general, the free concentration of one partner at which half of the binding sites on the other are occupied at equilibrium, for simple one-to-one binding) was determined as 4.4 nM.
The same measure, in the same setting: to B3 belongs 3.5 nM; to B4, 9 nM; to B5, 4.4 nM.

In the next assay the target is T1, human von Willebrand Factor (vWF). In words: SPR (BIACORE) on vWF. The source holds these as a separate data set.
B6 had a Kd of 3.1 nM.
Molecule B7 returned a dissociation constant Kd of 14.6 nM.
Regarding B8, the Kd worked out at 38.8 nM.
Turning to B9, the Kd amounted to 10.6 nM.

The target is the same in a further assay. In words: SPR (BIACORE) on vWF. The source holds these as a separate data set.
In the case of B10, the dissociation constant (Kd) turned out to be 1.8 nM.
Still for that read-out and setting: to B11 belongs 12.8 nM.

A further assay has the same target. As to the kind of experiment: SPR (BIACORE) on immobilised vWF, range of nanobody concentrations; KD via steady state affinity.
B6 gave an equilibrium dissociation constant (Kd) of 4.4 nM.
In turn, B5 showed a Kd of 4.5 nM.
